From patent US20170320967A1

Molecular target: recombinant human TNFα (human) (UniProt P01375)
Assay: cell-based or functional assay

Row | TNFα IC50 (HEK Blue Reporter Assay) | Substance
1 | 0.0395 µg/mL | Binding Protein 9, (anti-IL4 × anti-IL13) × anti-TNFα (from UniProt P0DOX5 2-448)
2 | 0.0476 µg/mL | Binding Protein 10, (anti-IL13 × anti-IL4) × anti-TNFα (from UniProt P0DOX5 2-448)
3 | 0.0265 µg/mL | Binding Protein 11, (anti-IL13 × anti-IL4) × anti-TNFα (from UniProt P0DOX5 2-448; P0DOX7 1-214)

Molecular target: recombinant human TNFα (human) (UniProt P01375)
Assay: SPR (Biacore), captured antibody, TNFα as analyte

Row | Kd | koff | kon | Substance
4 | 2.42 nM | 0.00032 s⁻¹ | 132000 M⁻¹ s⁻¹ | Binding Protein 9, (anti-IL4 × anti-IL13) × anti-TNFα (from UniProt P0DOX5 2-448) (other; other documents disagree on this pair)
5 | 2.07 nM | 0.00029 s⁻¹ | 140000 M⁻¹ s⁻¹ | Binding Protein 10, (anti-IL13 × anti-IL4) × anti-TNFα (from UniProt P0DOX5 2-448) (other; other documents disagree on this pair)
6 | 0.541 nM | 0.000182 s⁻¹ | 336000 M⁻¹ s⁻¹ | Binding Protein 11, (anti-IL13 × anti-IL4) × anti-TNFα (from UniProt P0DOX5 2-448; P0DOX7 1-214) (other; other documents disagree on this pair)
